According to US10857112B2, “Small molecule inhibitors of RNA binding motif (RBM) proteins for the treatment of acute cellular injury” (University of Pittsburgh—Of the Commonwealth System of …, priority 2012, dated 2020):

What was measured:
[1] = tested on: primary rat cortical neurons; assay: STS injury, neuronal viability and cytotoxicity; details: 250 nM STS co-administered 24 hours
[2] = tested on: primary rat cortical neurons; assay: H2O2 injury, neuronal viability 24 h (CellTiter-Blue); details: 40 μM H2O2 35 min, post-treatment 100 ng/mL
[3] = tested on: rat liver microsomes; details: cited from earlier work

Compound | cell viability, comparison of neuroprotectants [1] | neuronal death after H2O2 injury [2] | microsomal lipid peroxidation (thio-barbituric acid reactive products) [3]
IGF-1: Insulin like growth factor-1, well established in vitro and in vivo neuroprotectant | Neither minocycline nor IGF-1 reduced neuronal death | ineffective at rescuing neurons from H2O2 injury | –
O=C1c2ccccc2C(=O)c2cc(S(=O)(=O)O)ccc21 [AQ2S, anthraquinone-2-sulfonic acid] | – | – | inhibited microsomal lipid peroxidation
